The test system of this assay is IL-8. Kind of assay: IL-8 release by TNFα-stimulated HUVECs, ELISA. Type of assay: cell-based, human. The note with it: 10 ng/ml TNFα + 10 μM; 18 hours; TNFα + water 35572. As for the experimental part:
Passage 4 HUVECs, human source lot number 8710 (obtained from ATCC), were put into the wells of a 24-well tissue culture plate at 5,000 cells/well in EGM-2 medium (obtained from Cambrex) and cultured for 72 hours at 37° C. and 5% CO2. […] After incubation for 1 hour at 37° C. and 5% CO2, TNFα (obtained from Pierce) was added to give a final concentration of 10 ng/ml, and the cells were incubated for an additional 18 hours at 37° C. and 5% CO2. After this incubation, the supernatants were collected, and the amount of IL-8 in the supernatants determined by ELISA as described in Example 4.

This is an account of results in US20060183773A1, “Uses of methylphenidate derivatives” (priority 2005, published 2006).

Take `C[C@@H]1C[C@H]2[C@@H]3CCC4=CC(=O)C=C[C@]4(C)[C@@]3(F)[C@@H](O)C[C@]2(C)[C@@]1(O)C(=O)CO` [dexamethasone, reference compound]: the “Mean IL-8” value is 35952 ± 2197.14 pg/mL.
